Reference: patent US12539292B2, “BRM targeting compounds and associated methods of use” (Arvinas Operations, Inc., priority 2018, dated 2026)

Chains of the proteins cited; added tags and fusions are not shown.
UniProt P51531, whole entry: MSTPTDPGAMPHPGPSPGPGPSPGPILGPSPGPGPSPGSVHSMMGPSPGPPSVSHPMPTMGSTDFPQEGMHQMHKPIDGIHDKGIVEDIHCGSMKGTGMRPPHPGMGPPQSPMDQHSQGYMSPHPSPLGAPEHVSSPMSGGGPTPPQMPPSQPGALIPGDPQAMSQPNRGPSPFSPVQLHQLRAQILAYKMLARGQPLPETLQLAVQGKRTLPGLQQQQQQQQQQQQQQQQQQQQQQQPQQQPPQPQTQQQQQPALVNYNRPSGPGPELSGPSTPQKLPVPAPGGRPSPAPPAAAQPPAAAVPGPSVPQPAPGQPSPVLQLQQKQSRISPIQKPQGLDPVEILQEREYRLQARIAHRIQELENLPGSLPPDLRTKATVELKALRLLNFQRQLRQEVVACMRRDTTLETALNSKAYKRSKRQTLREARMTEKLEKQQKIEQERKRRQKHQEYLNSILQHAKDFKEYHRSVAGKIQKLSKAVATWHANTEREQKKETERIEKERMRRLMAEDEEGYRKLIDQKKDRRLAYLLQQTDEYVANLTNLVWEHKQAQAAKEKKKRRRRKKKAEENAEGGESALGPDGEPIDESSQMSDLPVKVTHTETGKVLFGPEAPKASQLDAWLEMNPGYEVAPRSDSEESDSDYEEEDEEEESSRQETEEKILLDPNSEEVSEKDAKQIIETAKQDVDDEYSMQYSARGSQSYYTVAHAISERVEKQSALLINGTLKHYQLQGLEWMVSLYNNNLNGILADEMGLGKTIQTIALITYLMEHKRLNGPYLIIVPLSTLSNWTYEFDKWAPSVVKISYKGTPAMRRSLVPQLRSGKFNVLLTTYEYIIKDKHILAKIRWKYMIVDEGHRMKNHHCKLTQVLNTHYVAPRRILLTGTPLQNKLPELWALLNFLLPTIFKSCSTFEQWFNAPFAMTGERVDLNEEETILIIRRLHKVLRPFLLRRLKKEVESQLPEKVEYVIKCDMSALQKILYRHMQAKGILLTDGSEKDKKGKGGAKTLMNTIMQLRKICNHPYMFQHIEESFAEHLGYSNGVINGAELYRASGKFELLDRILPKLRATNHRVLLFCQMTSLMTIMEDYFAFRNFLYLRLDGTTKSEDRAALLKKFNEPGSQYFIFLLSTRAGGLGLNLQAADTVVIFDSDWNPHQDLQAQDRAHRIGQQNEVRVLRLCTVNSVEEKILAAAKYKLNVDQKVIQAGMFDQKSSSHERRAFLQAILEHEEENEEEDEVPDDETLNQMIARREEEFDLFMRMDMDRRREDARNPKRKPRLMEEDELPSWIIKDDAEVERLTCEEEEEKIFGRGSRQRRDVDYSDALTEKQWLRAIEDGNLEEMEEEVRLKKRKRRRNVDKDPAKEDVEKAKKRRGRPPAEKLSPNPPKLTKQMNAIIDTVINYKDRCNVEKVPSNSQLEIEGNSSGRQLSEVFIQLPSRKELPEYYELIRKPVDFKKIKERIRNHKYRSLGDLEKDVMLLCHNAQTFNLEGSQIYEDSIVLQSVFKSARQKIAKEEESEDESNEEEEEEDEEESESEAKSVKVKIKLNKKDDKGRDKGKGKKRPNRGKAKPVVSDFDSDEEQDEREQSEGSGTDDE

Biological target: T1, BRM (Homo sapiens, UniProt P51531)
T1 construct: In-Cell Western Screen of BRM Degradation in SW1573 Cells; endogenous in cells; host or cells: SW1573
Assay: In-cell Western screen of BRM degradation in SW1573 cells (Dmax and DC50)
Assay type: cell-based
Experimental: In-Cell Western Screen of BRM Degradation in SW1573 Cells
To assess BRM degradation (Dmax and DC50), cells were seeded at 8000/well in 96-well black/clear-bottom plates in 180 μL DMEM growth media (containing 1% pen-strep, 1% HEPES and 10% FBS) per well. Plates were incubated overnight to allow adhesion. The next morning cells were treated by adding 20 μL of 10× compound (1% DMSO) to appropriate wells and returned to incubator for overnight (18-20 hours). The final DMSO concentration was 0.1%.
For processing, the plates were removed from incubator, the media was removed, and immediately 200 μL of cold (4° C.) DPBS was added to all wells. DPBS was then removed, and 50 μL of 4% paraformaldehyde (PFA) in DPBS (4° C.) was added to all wells, and the plates were incubated at room temperature for 20 minutes. PFA was then removed, and 200 μL of TBS-T containing 0.5% Triton X-100 was added to all wells, and the plates were incubated at room temperature for 30 minutes. […]
To read each plate TBS-T was removed, and each plate was inverted tapped on a paper towel. The plates were read on the LI-COR Odyssey with default intensity settings of 5.0 for both channels. LI-COR images were analyzed with the in-cell Western feature of Image Studio Lite.

Molecule	Dmax (SW1573, read-out: Dmax (% degraded))	DC50 (target protein degradation)
Cc1ncsc1-c1ccc([C@H](C)NC(=O)[C@@H]2C[C@@H](O)CN2C(=O)[C@@H](c2cc(N3CCC(CN4CCC(O[C@H]5C[C@H](Oc6cc(N7CCN(c8cc(-c9ccccc9O)nnc8N)CC7)ccn6)C5)CC4)CC3)no2)C(C)C)cc1 [compound 693, (2S,4R)-1-((R)-2-(3-(4-((4-((1r,3r)-3-((4-(4-(3-amino-6-(2-hydroxyphenyl)pyridazin-4-yl)piperazin-1-yl)pyridin-2-yl)oxy)cyclobutoxy)piperidin-1-yl)methyl)piperidin-1-yl)isoxazol-5-yl)-3-methylbutanoyl)-4-hydroxy-N-((S)-1-(4-(4-methylthiazol-5-yl)phenyl)ethyl)pyrrolidine-2-carboxamide]	> 75%	–
(2S,4R)-1-((2S)-2-(3-(2-(4-((1r,3S)-3-(3-(3-(3- amino-6-(2-hydroxyphenyl)pyridazin-4-yl)-3,8- diazabicyclo[3.2.1]octan-8- yl)phenoxy)cyclobutoxy)piperidin-1- yl)ethoxy)isoxazol-5-yl)-3-methylbutanoyl)-4- hydroxy-N-((S)-1-(4-(4-methylthiazol-5- yl)phenyl)ethyl)pyrrolidine-2-carboxamide [compound 461]	–	> 30 nM
